Results published in patent US9914723B2, “Small molecule inhibitors of Mcl-1 and uses thereof” (THE REGENTS OF THE UNIVERSITY OF MICHIGAN, priority 2012, dated 2018).
pIC50, pKi: −log10 of the molar value.

Amino acid sequences for entries named in this document (tags omitted).
UniProt Q92843, whole entry: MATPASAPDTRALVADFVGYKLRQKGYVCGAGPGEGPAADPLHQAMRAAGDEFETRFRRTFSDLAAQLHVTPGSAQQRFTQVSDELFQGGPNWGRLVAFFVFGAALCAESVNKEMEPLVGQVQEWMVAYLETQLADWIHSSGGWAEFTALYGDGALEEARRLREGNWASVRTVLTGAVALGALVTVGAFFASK
UniProt Q07820, whole entry: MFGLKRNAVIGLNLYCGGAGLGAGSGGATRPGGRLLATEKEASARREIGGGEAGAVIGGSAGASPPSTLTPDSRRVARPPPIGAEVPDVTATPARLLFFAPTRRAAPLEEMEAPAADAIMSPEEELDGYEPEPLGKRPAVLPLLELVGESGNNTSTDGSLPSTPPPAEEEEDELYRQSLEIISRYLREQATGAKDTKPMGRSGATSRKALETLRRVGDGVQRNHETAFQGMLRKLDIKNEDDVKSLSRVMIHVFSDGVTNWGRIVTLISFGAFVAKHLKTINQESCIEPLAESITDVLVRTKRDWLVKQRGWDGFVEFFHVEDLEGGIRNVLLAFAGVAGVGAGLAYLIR
UniProt Q07817, whole entry: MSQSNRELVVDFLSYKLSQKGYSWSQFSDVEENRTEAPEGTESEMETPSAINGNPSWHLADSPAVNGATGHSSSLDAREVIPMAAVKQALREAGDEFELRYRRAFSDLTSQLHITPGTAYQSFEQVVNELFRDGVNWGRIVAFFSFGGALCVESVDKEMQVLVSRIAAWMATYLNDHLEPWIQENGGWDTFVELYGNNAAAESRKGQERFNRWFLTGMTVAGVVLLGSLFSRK
UniProt P10415, whole entry: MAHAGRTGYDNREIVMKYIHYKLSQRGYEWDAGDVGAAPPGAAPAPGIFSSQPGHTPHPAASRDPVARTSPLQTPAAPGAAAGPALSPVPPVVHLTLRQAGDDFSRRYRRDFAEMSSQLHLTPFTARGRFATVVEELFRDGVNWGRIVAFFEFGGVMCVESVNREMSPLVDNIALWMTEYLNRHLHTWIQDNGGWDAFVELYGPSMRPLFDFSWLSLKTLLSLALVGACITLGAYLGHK
UniProt Q16548, whole entry: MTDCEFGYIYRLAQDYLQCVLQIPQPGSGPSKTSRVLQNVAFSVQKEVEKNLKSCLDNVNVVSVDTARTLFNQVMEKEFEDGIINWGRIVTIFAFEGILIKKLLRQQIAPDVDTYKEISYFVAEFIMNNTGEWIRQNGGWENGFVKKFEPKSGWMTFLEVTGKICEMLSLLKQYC

Tests used:
[1] = target: Bcl-w (Homo sapiens, UniProt Q92843); assay: Binding affinity against Bcl-2 family anti-apoptotic proteins: Bcl-w; conditions: read-out: Bcl-w Ki
[2] = target: T1, Mcl-1 (Homo sapiens, UniProt Q07820); assay: Binding affinity against Bcl-2 family anti-apoptotic proteins: Mcl-1; conditions: read-out: Mcl-1 Ki
[3] = target: Bcl-xL (Homo sapiens, UniProt Q07817); assay: Binding affinity against Bcl-2 family anti-apoptotic proteins: Bcl-xL; conditions: read-out: Bcl-xL Ki
[4] = target: Bcl-2 (Homo sapiens, UniProt P10415); assay: Binding affinity against Bcl-2 family anti-apoptotic proteins: Bcl-2; conditions: read-out: Bcl-2 Ki
[5] = target: A1 (Homo sapiens, UniProt Q16548); assay: Binding affinity against Bcl-2 family anti-apoptotic proteins: A1; conditions: read-out: A1 Ki
[6] = target: T1, Mcl-1; assay: fluorescence polarizing binding assay, binding to Mcl-1

| pKi [1] | pKi [2] | pKi [3] | pKi [4] | pKi [5] | fold decrease of binding affinity to Mcl-1 ([6]; in comparison with UMI-1033) [fold] | pIC50 ([6]; read-out: IC50 for binding to Mcl-1, fluorescence polarizing binding assay) | SMILES |
| --- | --- | --- | --- | --- | --- | --- | --- |
| 4.48 | 6.92 | < 4.52 | < 4.52 | < 4.60 |  |  | CCOC(=O)c1c(C(C)(C)C)oc2c1c(C(c1ccncc1)N1CCN(C)CC1)c(O)c1ccccc12 (stereo not shown) |
|  |  |  |  |  | 125 | 5.03 | CCOC(=O)c1c(C)oc2c1c(C(OC)c1ccncc1)c(O)c1ccccc12 (stereo not shown) |
